ChEMBL document CHEMBL5728569, “Heteroaryl-substituted triazoles as APJ receptor agonists” (2021)
pEC50: −log10 of the molar value.

Biological target: T1, Apelin receptor (Homo sapiens, UniProt P35414)
T1 sequence (P35414 whole entry): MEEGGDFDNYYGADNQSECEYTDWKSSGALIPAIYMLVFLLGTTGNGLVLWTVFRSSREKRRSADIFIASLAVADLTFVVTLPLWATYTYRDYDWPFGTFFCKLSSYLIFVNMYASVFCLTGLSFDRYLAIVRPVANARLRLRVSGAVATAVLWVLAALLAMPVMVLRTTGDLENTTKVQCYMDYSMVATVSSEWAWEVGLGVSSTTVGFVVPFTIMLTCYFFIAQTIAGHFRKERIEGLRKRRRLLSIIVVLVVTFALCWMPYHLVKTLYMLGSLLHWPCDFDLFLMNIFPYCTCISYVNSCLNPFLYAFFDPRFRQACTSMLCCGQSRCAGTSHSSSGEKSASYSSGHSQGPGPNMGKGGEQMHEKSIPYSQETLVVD
Test: [35S]GTPgammaS Binding: The human APJ receptor was cloned by polymerase chain reaction and the gene encoding the receptor was subcloned in pFLAG-CMV™-3 expression vector (Sigma, Saint Louis, Mo. USA) in-house at Amgen. A GTPγS binding assay was performed on membranes prepared from CHO cells stably expressing human APJ receptor. The optimum experimental conditions for the concentrations of GDP, MgCl2, and NaCl in the assay buffer were initially determined. […] Incubation was at RT for 90 min and the microplate was read using a ViewLux™ ultra HTS Microplate Imager (PerkinElmer, Inc.).

## COc1cccc(OC)c1-n1c(NS(=O)(=O)C[C@H](OC)c2ccc(Cl)cn2)nnc1-c1ccn(C)n1 (mixture of isomers)
  pEC50: 8.96
